US11584714B2 (dated 2023)

By UniProt entry, the sequences of proteins in these tests, tags left out. Residues count along the entry.
UniProt O00187, 445-686: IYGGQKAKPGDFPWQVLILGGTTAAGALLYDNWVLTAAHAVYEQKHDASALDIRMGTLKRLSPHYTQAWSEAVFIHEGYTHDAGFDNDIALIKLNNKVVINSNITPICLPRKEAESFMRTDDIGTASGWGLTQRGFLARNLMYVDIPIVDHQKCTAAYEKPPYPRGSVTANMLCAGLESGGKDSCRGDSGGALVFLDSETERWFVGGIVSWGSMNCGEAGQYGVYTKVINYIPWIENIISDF

Molecular target: MASP-2 (CCP1-CCP2-SP) (Homo sapiens (Human), UniProt O00187)
Type: biochemical
Conditions: selectivity for MASP-2 inhibition versus thrombin

Question: With `Cc1nc(N)ccc1CNC(=O)C(C)NC(=O)[C@H]1C[C@H](c2cccc(-c3ccccc3)c2)CN1` (stereo in doubt) [compound 1360, (2R,4R)-4-([1,1′-Biphenyl]-3-yl)-N—((R)-1-(((6-amino-2-methylpyridin-3-yl)methyl)amino)-1-oxopropan-2-yl)pyrrolidine-2-carboxamide Di-trifluoroacetate salt] as the molecule, how does the “MASP-2 vs. thrombin selectivity” value read?
Answer: **** (≥100-fold)

Structures can show the parent of a compound that is named as a salt.
